Tested on: Human primary myoblasts (healthy donors 3, 1 and 5)
Assay: MyoScreen hypertrophy assay on myotubes from healthy donors
Type: cell-based
Conditions: second dose response assay, healthy Donor 3

Q: For `c1ccc(-c2n[nH]cc2-c2ccnc3ccccc23)nc1` [LY 364947], which “% Activity” value is on record?
A: 132%

Reference: US12303498B2, “ALK5 inhibitors as skeletal muscle hypertrophy inducers” (CYTOO, priority 2018, dated 2025)
